The list shows a part of the results, in another mix than the full data. Results filed as inconclusive are left out. The source made the active and inactive calls. The call rests on the fitted dose curve; in most records, active means well fitted curve in the direction sought with a large enough effect; inconclusive means small, poorly fitted or top-dose-only effect, or another doubt; inactive means no such curve, though single readings can be large; an effect the other way counts as inactive or inconclusive.
Assays:
[1] = biological target: Cytochrome P450 3A7 (Homo sapiens) (UniProt P24462); assay: Cytochrome P450 family 3 subfamily A member 7 (CYP3A7) small molecule antagonists: luciferase qHTS assay (AID 1963596; further: nearly all actives have a fitted effect of over 40% in size; further: potency means the concentration at half of the fitted maximal effect); settings: P450-Glo CYP3A7 enzyme luminescence, 1 h; series mostly up to 57.4 µM
Outline: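 Enzyme-substrate mix + cpd (DMSO), 10 min RT; + NADPH regen system, 1 h RT; + luciferin detection reagent, 20 min RT; luminescence read. Proluciferin substrate, P450-Glo format, 1536-well qHTS.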

Protein sequences, listed by entry. Tags and fused reporters are not part of them.
UniProt P24462, whole entry, looked up: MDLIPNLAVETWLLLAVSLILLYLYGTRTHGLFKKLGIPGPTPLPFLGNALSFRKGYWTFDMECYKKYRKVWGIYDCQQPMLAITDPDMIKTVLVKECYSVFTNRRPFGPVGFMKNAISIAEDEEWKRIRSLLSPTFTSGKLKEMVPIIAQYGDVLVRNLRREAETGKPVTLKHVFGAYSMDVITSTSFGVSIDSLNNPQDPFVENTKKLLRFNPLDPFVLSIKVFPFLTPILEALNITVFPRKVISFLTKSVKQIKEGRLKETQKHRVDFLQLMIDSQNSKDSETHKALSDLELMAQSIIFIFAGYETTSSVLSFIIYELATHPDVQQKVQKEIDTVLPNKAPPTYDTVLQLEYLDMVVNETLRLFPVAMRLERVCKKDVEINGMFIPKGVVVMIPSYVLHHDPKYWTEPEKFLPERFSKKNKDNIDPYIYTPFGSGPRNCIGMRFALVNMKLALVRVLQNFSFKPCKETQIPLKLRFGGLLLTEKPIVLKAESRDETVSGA

[2] = Viability qHTS for spleen associated tyrosine kinase inhibitor (SYKi) naive MV4-11 cells (AID 1963823); settings: MV4-11 AML viability, CellTiter-Glo luminescence, 72 h; series mostly up to 45 µM; further: nearly all actives have a fitted effect of over 40% in size; further: potency means the concentration at half of the fitted maximal effect
[3] = Viability qHTS for spleen associated tyrosine kinase inhibitor (SYKi) drug resistant MV4-11 cells (AID 1963824); settings: SYKi-resistant MV4-11 viability, CellTiter-Glo, 72 h; series mostly up to 45 µM; further: nearly all actives have a fitted effect of over 35% in size; further: potency means the concentration at half of the fitted maximal effect
Outline: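 CellTiter-Glo luminescence, read 10 min after reagent addition, reports viability after a 72 hr compound exposure. Cells are an MV4-11 line made resistant to SYK inhibition, seeded at 500 per well onto compound-containing plates.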

[4] = Cellular viability qHTS for adrenocortical cancer (ACC) cell line SW-13 (AID 1963989); settings: SW-13 ACC cells viability, CellTiter-Glo, 48 h; hits give low values;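 further: cells grown in serum-free medium with ITS supplement; on the % scale 0 is the no-effect control and ±100 the full control effect; nearly all actives have a fitted effect of over 65% in size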
[5] = Cellular viability qHTS for adrenocortical cancer (ACC) cell line NCI-H295R (AID 1963990); settings: CellTiter-Glo ATP luminescence, 48 h; series mostly up to 46.1 µM; further: nearly all actives have a fitted effect of over 60% in size; further: potency means the concentration at half of the fitted maximal effect
[6] = Quantitative highthroughput screen to assess conditional lethalithy of NOMO1 cells grown in RPMI1640 with untreated serum (RPMI+s) (AID 1963876); settings: NOMO1 AML cells in RPMI+serum, CellTiter-Glo viability, 48 h; at 45.8 µM (top of the series);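 further: 100% = DMSO wells and 0% = empty wells without cells; nearly all actives have a fitted effect of over 35% in size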
Outline: (§1)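 Each medium arm—HPLM with 10% dialyzed FBS, or RPMI1640 with 5 mM glucose and 10% untreated or dialyzed FBS—was screened against an 11-point, 3-fold compound titration for 48 h at 37 °C, with CellTiter-Glo luminescence as endpoint.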

[7] = Quantitative highthroughput screen to assess conditional lethalithy of NOMO1 cells grown in RPMI1640 with dialyzed fetal bovine serum (RPMI+ds) (AID 1963877); settings: NOMO1 in RPMI+dialyzed FBS viability, ATP luminescence, 48 h; at 45.8 µM (top of the series);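 further: 100% = DMSO control wells and 0% = empty wells; nearly all actives have a fitted effect of over 30% in size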
Outline: as §1

[8] = Quantitative highthroughput screen to assess conditional lethalithy of NOMO1 cells grown in Human Plasma-Like Medium with dialyzed fetal bovine serum (HPLM+ds) (AID 1963878); settings: NOMO1 AML cells in HPLM+ds, CellTiter-Glo viability, 48 h; at 45.8 µM (top of the series);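 further: 100% = DMSO wells and 0% = empty wells on each plate; nearly all actives have a fitted effect of over 35% in size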
Outline: as §1

[9] = Quantitative highthroughput screen to assess conditional lethalithy of P12 Ichikawa cells grown in Human Plasma-Like Medium with dialyzed fetal bovine serum (HPLM+ds) (AID 1963879); settings: ATP luminescence, 48 h; at 45.8 µM (top of the series); further: nearly all actives have a fitted effect of over 35% in size
[10] = Quantitative highthroughput screen to assess conditional lethalithy of P12 Ichikawa cells grown in RPMI1640 with dialyzed fetal bovine serum (RPMI+ds) (AID 1963880); settings: ATP luminescence, 48 h; at 45.8 µM (top of the series)
[11] = Quantitative highthroughput screen to assess conditional lethalithy of P12 Ichikawa cells grown in RPMI1640 with untreated serum (RPMI+s) (AID 1963881); settings: ATP luminescence, 48 h; at 45.8 µM (top of the series)
[12] = Quantitative highthroughput screen to assess conditional lethalithy of SEM cells grown in RPMI1640 with dialyzed fetal bovine serum (RPMI+ds) (AID 1963884); settings: SEM B-ALL cells, RPMI+dialyzed FBS, CellTiter-Glo viability, 48 h; at 45.8 µM (top of the series)
Outline: as §1

CN(C(=O)Cc1ccccc1)[C@H]1CC[C@@]2(CCCO2)C[C@@H]1N1CCCC1
inactive: Potency [2] | Potency [3] | activity (max response) [4] -2.95% | Potency [5]
active: Potency [1] 24.5 µM

CCn1c(=O)n([C@@H]2CCN(CC3CCCCCCC3)C[C@H]2CO)c2ccccc21
inactive: Potency [5]
active: Potency [3] 16.6 µM

CCNC(C)Cc1ccc2c(c1)OCO2 (stereo unspecified)
inactive: activity (max response) [4] -7.74% | Potency [5]

CN(C)C1(c2ccccc2)CCC2(CC1)OCCc1c2[nH]c2ccc(F)cc12 (stereo unspecified)
inactive: Potency [1] | activity (max response) [4] 1.53% | Potency [5]

CN(C(=O)Cc1ccc(Cl)c(Cl)c1)[C@H]1CC[C@@]2(CCCO2)C[C@@H]1N1CCCC1
inactive: Potency [2] | Potency [3] | activity (max response) [4] -7.83% | Potency [5]

NC(=O)Nc1ccc([As](=O)(O)O)cc1
inactive: Potency [1] | Potency [2] | Potency [3] | activity (max response) [4] 2.87% | Potency [5]

CCn1c(=O)n([C@@H]2CCN(CC3CCCCCCC3)C[C@@H]2CO)c2ccccc21
inactive: viability [6] 95.4% | viability [7] 93% | viability [8] 97.9% | viability [9] 94.3% | viability [10] 94.5% | viability [11] 92.7% | viability [12] 93.4%

N[C@@H](Cc1ccc([N+]([O-])(CCCl)CCCl)cc1)C(=O)O
active: Potency [2] 1.18 µM | Potency [3] 1.66 µM | Potency [5] 11.2 µM

Reference: PubChem BioAssay (NCATS)
